Test results taken from ChEMBL document CHEMBL5316351, “Development of a Covalent Inhibitor of c-Jun N-Terminal Protein Kinase (JNK) 2/3 with Selectivity over JNK1” (J Med Chem, 2023).

Amino acid sequences for entries named in this document (tags omitted). A change or cut given only in a name is not applied to a line headed by its entry.
UniProt P45983: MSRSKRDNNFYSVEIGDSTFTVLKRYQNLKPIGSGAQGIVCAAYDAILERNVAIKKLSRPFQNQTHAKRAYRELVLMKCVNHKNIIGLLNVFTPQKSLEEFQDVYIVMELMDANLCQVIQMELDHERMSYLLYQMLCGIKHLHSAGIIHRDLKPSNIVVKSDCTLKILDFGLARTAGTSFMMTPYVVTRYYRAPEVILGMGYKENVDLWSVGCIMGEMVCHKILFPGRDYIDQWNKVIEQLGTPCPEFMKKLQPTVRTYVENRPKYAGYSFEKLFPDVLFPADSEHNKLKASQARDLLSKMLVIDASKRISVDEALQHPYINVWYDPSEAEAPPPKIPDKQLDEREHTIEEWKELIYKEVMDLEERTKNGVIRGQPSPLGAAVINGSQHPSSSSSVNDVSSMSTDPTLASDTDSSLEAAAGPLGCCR
UniProt P45984: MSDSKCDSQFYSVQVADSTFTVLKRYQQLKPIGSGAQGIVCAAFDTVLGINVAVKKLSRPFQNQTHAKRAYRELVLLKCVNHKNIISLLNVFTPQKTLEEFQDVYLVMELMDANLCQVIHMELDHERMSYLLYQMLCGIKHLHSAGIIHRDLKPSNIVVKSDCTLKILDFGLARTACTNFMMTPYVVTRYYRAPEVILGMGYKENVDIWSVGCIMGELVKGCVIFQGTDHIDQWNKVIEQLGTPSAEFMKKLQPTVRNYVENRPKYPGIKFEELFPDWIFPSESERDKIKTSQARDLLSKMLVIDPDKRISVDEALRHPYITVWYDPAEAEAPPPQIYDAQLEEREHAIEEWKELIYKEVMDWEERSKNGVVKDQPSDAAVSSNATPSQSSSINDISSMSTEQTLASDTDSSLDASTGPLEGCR

Key:
[1] = target: Mitogen-activated protein kinase 8 (Homo sapiens, UniProt P45983); assay: Inhibition of Nano-Luc fused JNK1 (unknown origin) expressed in HEK293T cells pretreated for 3 hrs followed by K5-tarcer addition and measured after 1 hr by NanoBRET assay; type: cell-based
[2] = target: Mitogen-activated protein kinase 9 (Homo sapiens, UniProt P45984); assay: Inhibition of Nano-Luc fused JNK2 (unknown origin) expressed in HEK293T cells pretreated for 3 hrs followed by K5-tarcer addition and measured after 1 hr by NanoBRET assay; type: cell-based

Row | IC50 [2] [nM] | SMILES | IC50 [1] [nM]
1 | – | Cc1cc(NC(=O)c2cccc(NC(=O)/C=C/CN(C)C)c2)ccc1Nc1nccc(-c2cccnc2)n1 | 26
2 | 132 | C[C@H]1CN(C(=O)c2ccc(NC(=O)/C=C/CN(C)C)cc2)C[C@H]1Nc1nccc(-c2c(-c3ccccc3)nn3ccccc23)n1 | –
